Literature values as cited in USRE48842E1, “Pyrimido-pyrrolo-oxazine-dione compound inhibitors of the cystic fibrosis transmembrane conductance regulator protein and uses therefor” (The Regents of the University of California, priority 2011, dated 2021).

Sequences of proteins named here, by UniProt entry; tags and fusion partners are left off.
UniProt P13569, whole entry, species assumed: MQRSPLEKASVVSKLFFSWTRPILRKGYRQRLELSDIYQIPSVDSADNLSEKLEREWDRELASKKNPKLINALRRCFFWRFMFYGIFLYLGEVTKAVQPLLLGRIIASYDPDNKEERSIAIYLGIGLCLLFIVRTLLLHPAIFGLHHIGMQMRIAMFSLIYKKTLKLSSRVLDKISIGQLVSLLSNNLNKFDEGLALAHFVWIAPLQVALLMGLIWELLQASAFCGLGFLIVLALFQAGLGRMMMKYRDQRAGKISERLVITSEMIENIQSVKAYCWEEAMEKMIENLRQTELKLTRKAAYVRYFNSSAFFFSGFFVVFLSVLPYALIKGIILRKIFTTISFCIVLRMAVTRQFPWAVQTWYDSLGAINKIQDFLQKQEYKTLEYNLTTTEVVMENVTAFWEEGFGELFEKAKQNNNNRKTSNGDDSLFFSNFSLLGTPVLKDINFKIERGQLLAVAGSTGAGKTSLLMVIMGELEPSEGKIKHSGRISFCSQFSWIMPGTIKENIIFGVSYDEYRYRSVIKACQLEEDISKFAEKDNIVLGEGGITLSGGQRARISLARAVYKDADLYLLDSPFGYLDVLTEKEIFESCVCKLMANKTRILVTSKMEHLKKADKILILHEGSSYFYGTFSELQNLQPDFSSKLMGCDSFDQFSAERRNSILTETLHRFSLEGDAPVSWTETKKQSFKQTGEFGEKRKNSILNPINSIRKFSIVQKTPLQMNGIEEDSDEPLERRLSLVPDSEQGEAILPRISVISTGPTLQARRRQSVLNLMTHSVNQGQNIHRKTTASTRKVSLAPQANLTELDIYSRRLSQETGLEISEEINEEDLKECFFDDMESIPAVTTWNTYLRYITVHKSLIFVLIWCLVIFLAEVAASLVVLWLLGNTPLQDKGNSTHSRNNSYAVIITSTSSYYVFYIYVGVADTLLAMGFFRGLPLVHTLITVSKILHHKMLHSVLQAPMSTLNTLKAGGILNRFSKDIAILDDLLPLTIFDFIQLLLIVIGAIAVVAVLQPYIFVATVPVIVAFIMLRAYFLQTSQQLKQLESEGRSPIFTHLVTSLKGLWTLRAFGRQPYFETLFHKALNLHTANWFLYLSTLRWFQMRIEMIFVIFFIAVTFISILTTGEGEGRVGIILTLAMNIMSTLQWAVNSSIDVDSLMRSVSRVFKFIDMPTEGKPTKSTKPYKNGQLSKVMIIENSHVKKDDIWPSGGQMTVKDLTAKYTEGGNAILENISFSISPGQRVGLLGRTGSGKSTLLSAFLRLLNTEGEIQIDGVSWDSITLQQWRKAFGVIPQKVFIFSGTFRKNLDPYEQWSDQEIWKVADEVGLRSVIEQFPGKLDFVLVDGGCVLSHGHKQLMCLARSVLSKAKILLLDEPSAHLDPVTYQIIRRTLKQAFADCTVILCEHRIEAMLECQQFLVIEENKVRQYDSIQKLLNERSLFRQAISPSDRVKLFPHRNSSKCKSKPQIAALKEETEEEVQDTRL

Target: CFTR (Homo sapiens, UniProt P13569)
Details: literature values; read-out: IC50 for CFTR inhibition; cited from earlier work

For CFTRinh-172, the IC50 is listed as 300 to 3000 nM.
